Earlier results in US6630120B1, “Agents to increase the uptake of pharmaceuticals and diagnostic substances into solid tumors” (priority 1999, dated 2003).

By UniProt entry, the sequences of proteins in these tests, tags left out. Residues count along the entry.
UniProt P12821, 30-1306, species assumed: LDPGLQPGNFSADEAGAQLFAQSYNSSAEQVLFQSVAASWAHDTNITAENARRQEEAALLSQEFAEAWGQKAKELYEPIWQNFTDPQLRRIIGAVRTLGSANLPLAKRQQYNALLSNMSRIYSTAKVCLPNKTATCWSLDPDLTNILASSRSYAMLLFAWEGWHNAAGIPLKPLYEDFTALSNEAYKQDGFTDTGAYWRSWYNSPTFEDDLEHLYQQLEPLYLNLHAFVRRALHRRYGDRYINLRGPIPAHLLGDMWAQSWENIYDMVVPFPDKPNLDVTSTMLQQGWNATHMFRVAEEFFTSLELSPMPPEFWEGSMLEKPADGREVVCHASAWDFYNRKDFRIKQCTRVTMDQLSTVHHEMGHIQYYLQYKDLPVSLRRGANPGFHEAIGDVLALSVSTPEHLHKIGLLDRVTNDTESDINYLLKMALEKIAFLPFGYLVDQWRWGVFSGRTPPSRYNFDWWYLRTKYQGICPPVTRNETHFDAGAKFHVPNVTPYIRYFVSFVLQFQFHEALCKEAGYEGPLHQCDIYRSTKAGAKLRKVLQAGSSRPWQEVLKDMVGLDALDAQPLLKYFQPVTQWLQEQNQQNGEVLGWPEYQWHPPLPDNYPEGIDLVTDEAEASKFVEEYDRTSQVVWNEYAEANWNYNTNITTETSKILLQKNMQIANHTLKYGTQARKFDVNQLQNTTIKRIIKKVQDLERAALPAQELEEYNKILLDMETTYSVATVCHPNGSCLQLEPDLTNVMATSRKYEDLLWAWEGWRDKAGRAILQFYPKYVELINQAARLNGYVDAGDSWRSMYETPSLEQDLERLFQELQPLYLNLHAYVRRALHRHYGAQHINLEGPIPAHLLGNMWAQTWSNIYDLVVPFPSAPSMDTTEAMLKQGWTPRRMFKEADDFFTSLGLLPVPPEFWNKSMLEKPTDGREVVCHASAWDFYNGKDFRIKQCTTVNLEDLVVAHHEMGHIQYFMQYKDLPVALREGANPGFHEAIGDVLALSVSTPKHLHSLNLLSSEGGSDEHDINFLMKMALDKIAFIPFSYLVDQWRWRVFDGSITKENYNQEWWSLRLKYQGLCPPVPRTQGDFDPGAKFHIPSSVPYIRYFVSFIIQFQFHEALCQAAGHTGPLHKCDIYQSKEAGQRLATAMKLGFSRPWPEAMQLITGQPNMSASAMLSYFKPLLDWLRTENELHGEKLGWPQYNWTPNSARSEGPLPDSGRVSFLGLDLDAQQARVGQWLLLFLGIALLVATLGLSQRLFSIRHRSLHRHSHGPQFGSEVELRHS

Target: angiotensin converting enzyme (ACE) (Homo sapiens, UniProt P12821)
Conditions: general statement, no method given; cited from earlier work

SMILES: NC(N)=NCCC[C@H](NC(=O)[C@H](Cc1ccccc1)NC(=O)[C@@H]1CCCN1C(=O)[C@H](CO)NC(=O)[C@H](Cc1ccccc1)NC(=O)CNC(=O)[C@@H]1CCCN1C(=O)[C@@H]1CCCN1C(=O)[C@@H](N)CCCN=C(N)N)C(=O)O [bradykinin, Arginine-Proline-Proline-Glycine-Phenylalanine-Serine-Proline-Phenylalanine-Arginine, reference compound]
- degradation by angiotensin converting enzyme (ACE): significantly degraded
